Target: GFP-tagged CSB (UniProt Q03468)
Assay: affinity purification with mass spectrometry; label-free quantification and iBAQ; GFP-CSB pulled down with GFP Trap beads from U2OS CSB-KO cells; untreated against 20 J/m^2 UV-C with 1 h recovery

- percent of the isolated CSB molecules associated (iBAQ): > 60%
Substance: polymerase-associated factor 1 complex (PAF1C), endogenous (from UniProt Q8N7H5 1-531; Q8WVC0 1-666; Q6PD62 1-1173; Q9GZS3 1-305; Q6P1J9 1-531)
